Results from publication PMC3375359 (Journal of Medicinal Chemistry, 2012).

Protein sequences, listed by entry. Tags and fused reporters are not part of them.
UniProt P35372, whole entry: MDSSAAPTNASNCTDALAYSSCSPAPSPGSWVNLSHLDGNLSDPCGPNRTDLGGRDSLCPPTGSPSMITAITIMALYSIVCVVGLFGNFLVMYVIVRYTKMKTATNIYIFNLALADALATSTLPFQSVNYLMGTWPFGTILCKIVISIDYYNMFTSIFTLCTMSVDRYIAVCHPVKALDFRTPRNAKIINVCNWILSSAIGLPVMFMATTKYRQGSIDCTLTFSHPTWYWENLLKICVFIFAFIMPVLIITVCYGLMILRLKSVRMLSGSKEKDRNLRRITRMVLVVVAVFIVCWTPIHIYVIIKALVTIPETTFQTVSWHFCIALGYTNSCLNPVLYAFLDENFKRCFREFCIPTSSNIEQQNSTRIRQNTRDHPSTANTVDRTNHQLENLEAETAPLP

Experiments:
[1] = target: human μ opioid receptor (Homo sapiens, UniProt P35372); assay: [35S]GTPγS binding mediated by the mu opioid receptor; type: biochemical
[2] = target: human MOR (Homo sapiens, UniProt P35372); type: binding

Oc1ccc2c(c1)[C@@]13CCCC[C@H]1[C@@H](C2)N(CC1CCC1)CC3 [Butorphan, reference compound]
Emax ([1]; read-out: Emax (% maximal stimulation over basal)): 50 ± 2.5%
Selectivity MOR/KOR/DOR [2]: 3/1/75

COc1ccccc1CNc1ccc2c3c1O[C@H]1[C@@H](O)C=C[C@H]4[C@@H](C2)N(C)CC[C@@]341 [Compound 11a, 3-(2′-methoxybenzyl)amino-7,8-didehydro-4,5-epoxy-17-methyl-(5α,6α)-morphinan-6-ol]
functional activity at MOR (agonist character) ([1]; [35S]GTPγS binding assay, in words): full agonists

CN1CC[C@]23CCCC[C@H]2[C@H]1Cc1ccc(O)cc13 [Levorphanol, reference compound]
Selectivity MOR/KOR/DOR [2]: 1/11/20
